Laboratory results reported in ChEMBL document CHEMBL1140637, “QSAR modeling of matrix metalloproteinase inhibition by N-hydroxy-alpha-phenylsulfonylacetamide derivatives” (Bioorg Med Chem, 2007).

The chains behind the UniProt entries cited, without tags or fusion partners. Where a name states a change or a piece, a line headed by the entry shows the natural chain unless it says otherwise.
UniProt P14780: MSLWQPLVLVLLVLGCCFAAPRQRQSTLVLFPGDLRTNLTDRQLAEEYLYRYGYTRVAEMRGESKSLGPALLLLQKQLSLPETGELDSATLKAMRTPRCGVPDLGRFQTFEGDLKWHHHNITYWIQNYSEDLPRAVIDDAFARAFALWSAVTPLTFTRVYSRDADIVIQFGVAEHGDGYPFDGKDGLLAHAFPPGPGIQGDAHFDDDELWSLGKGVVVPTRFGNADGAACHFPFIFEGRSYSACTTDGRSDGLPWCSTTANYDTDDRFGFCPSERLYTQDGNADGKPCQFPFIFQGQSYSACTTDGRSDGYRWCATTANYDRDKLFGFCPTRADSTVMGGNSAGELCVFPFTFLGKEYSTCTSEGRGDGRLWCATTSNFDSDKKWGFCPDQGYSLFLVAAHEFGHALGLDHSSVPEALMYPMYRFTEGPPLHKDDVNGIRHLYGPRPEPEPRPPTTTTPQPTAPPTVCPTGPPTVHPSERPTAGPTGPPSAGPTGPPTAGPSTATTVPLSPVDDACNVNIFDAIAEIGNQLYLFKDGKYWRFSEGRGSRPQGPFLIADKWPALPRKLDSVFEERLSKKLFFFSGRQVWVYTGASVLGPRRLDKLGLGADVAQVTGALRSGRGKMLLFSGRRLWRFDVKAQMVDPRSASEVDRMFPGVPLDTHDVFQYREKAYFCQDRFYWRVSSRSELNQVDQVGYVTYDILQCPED

Columns and labels:
[1] = target: T1, Interstitial collagenase (Homo sapiens) (UniProt P03956); assay: Inhibition of MMP1
T1 sequence (whole entry): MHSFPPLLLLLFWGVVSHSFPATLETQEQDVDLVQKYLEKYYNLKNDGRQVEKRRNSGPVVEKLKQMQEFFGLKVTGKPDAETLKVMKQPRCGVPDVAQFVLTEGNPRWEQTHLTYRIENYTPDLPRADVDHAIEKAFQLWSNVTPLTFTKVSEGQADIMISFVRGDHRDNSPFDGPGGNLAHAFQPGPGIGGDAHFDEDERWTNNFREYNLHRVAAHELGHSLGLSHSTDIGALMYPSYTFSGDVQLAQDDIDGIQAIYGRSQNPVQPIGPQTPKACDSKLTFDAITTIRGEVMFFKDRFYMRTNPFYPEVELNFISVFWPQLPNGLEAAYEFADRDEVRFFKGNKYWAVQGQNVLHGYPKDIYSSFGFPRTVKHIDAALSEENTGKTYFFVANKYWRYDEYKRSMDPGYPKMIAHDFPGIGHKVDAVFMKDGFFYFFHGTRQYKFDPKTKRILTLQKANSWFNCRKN

[2] = target: Matrix metalloproteinase-9 (Homo sapiens) (UniProt P14780); assay: Inhibition of MMP9
[3] = target: Collagenase 3 (Homo sapiens) (UniProt P45452)

SMILES | log(10^6/IC50) [1] | log(10^6/IC50) [2] | log(10^6/IC50) [3]
CN1CCC(C(=O)NO)(S(=O)(=O)c2ccc(Oc3ccc(Cl)cc3)cc2)CC1 | 2.85 | 5.7 | 5.7
Cc1ccc(CN2CCC(C(=O)NO)(S(=O)(=O)c3ccc(OCc4ccc(Cl)cc4)cc3)CC2)cc1 | 2.32 | 5.22 | 5.22
CC(C)CCOc1ccc(S(=O)(=O)C2(C(=O)NO)CCN(Cc3ccccc3)CC2)cc1 | 2.59 | 5.4 | 5.7

Continued, values first:

log(10^6/IC50) [1] | log(10^6/IC50) [2] | log(10^6/IC50) [3] | SMILES
3.2 | 4.96 | 4.8 | CCOc1ccc(S(=O)(=O)[C@](C)(Cc2ccc(OCCN(CC)CC)cc2)C(=O)NO)cc1
3.37 | 4.82 | 4.72 | COc1ccc(S(=O)(=O)[C@](C)(Cc2ccc(OCCN(C(C)C)C(C)C)cc2)C(=O)NO)cc1
3 | 4.2 | 4.89 | COc1ccc(S(=O)(=O)[C@@](Cc2cccnc2)(CC(C)C)C(=O)NO)cc1
